Source: PubChem BioAssay AID2563 (Broad Institute, 2010)
The list shows a part of the results, in another mix than the full data. Some salts and complexes are drawn in separate pieces, as the source files them; their charges need not balance. Calls of active or inactive are those of the source.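 The calls were made as follows: active = fall in fluorescence gain of 50% or more versus controls, with final raw signal at or below 3038400; inconclusive = same 50% fall but final raw signal above 3038400; inactive = fall in fluorescence gain under 50%.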

Sequences of proteins named here, by UniProt entry; tags and fusion partners are left off.
UniProt Q03530, whole entry: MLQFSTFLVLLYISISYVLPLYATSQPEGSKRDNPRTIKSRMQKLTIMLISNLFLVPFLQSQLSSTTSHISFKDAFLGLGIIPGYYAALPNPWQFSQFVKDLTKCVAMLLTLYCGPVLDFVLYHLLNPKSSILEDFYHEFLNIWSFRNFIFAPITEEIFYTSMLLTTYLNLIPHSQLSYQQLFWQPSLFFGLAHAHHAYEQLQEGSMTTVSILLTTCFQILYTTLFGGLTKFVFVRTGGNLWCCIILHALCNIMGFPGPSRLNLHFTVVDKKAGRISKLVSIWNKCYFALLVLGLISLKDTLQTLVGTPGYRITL

The molecules below were run against CAAX prenyl protease 2 (Saccharomyces cerevisiae (strain ATCC 204508 / S288c)) (UniProt Q03530) (assay: blockers of Rce1 CaaX peptide cleavage – biochemical, fluorescence, cell-free homogeneous, primary screen (AID 2563)). Conditions: yeast membranes, quenched prenylated peptide cleavage fluorescence.

Compound | outcome
CN(C(=O)Cc1ccc(Cl)c(Cl)c1)[C@@H]1CCCC[C@H]1N1CCCC1 | inactive
CC(C)/C=N\N=C(\N)N[N+](=O)[O-] | inactive
COc1ccccc1CNC(=O)COC(=O)C(O)(c1ccccc1)c1ccccc1 | inactive
O=[N+]([O-])c1cc([N+](=O)[O-])c(-c2cnn(-c3ccccc3)c2)c([N+](=O)[O-])c1 | inactive
CCOC(=O)c1ccc(NP(C)(=O)Oc2cc(C)cc(C)c2)cc1 (configuration not stated) | inactive
Cc1cc(C)cc(OP(C)(=O)Nc2ccc(C)cc2C)c1 (configuration not stated) | inactive
Cc1cccc(OCC(=O)OC2CN3CCC2CC3)c1 (configuration not stated) | inactive
O=[As](O)(c1cccc(O)c1)c1cccc(O)c1 | inactive
COc1ccccc1OP(C)(=O)Nc1cccc(Br)c1 (configuration not stated) | inactive
O=[As](O)(O)c1cccnc1 | inactive
COc1cc(C(=O)NCC2(N3CCOCC3)CCCCC2)cc(Cl)c1OC(C)C | inactive
O=C(OC1CN2CCC1CC2)c1ccc(Cl)cc1 (configuration not stated) | inactive
CCOP(=O)(Nc1cccc2ccccc12)OCC | inactive
Cc1ccc(C)c(NP(C)(=O)Oc2ccccc2)c1 (configuration not stated) | inactive
CCCOP(=S)(Nc1nc(N)cc(=O)[nH]1)OCCC | inactive
Cc1ccc(NCCc2c([N+](=O)[O-])cc([N+](=O)[O-])cc2[N+](=O)[O-])cc1 | inactive
Nc1cccc2c([As](=O)(O)O)cccc12 | inactive
Cc1cc(C)cc(OP(C)(=O)Nc2ccccn2)c1 (configuration not stated) | inactive
CP(=O)(Nc1cccc(Br)c1)Oc1ccccc1 (configuration not stated) | inactive
O=C(O)COc1ccc([As](=O)(O)O)cc1[N+](=O)[O-] | inactive
Nc1ccccc1[As](=O)(O)c1ccccc1 | inactive
CS(=O)(=O)c1cc([N+](=O)[O-])c2no[n+]([O-])c2c1 | inactive
O=P(Nc1nccs1)(Oc1ccccc1)Oc1ccccc1 | inactive

Compound | outcome
O=P(Nc1nccs1)(c1ccccc1)c1nc2ccccc2s1 (configuration not stated) | inactive
O=C(O)c1cccc(Nc2c([N+](=O)[O-])cc([N+](=O)[O-])cc2[N+](=O)[O-])c1 | inactive
CCOP1(=S)c2c(C)nn(CCC#N)c2N=C(c2ccccc2F)N1C (configuration not stated) | inactive
CC1=NCCc2c1[nH]c1ccccc21.O=[N+]([O-])c1cc([N+](=O)[O-])c(O)c([N+](=O)[O-])c1 | inactive
CN(C(=O)Cc1ccc(Cl)c(Cl)c1)[C@H]1CC[C@@]2(CCCO2)C[C@@H]1N1CCCC1 | inactive
O=[N+]([O-])c1ccc2c(c1)nnn2O | inactive
CN(C)C(=O)c1cc([N+](=O)[O-])cc2c1-c1c(cc([N+](=O)[O-])cc1[N+](=O)[O-])C2=O | inactive
CN(C(=O)Cc1ccccc1)[C@@H]1CC[C@]2(CCCO2)C[C@H]1N1CCCC1 | inactive
N#CCCN(C(=O)COC(=O)C(O)(c1ccccc1)c1ccccc1)c1ccc(F)cc1 | inactive
NC(=O)Nc1ccc([As](=O)(O)O)cc1 | inactive
CCOC(=O)c1ccc(NP(C)(=O)Oc2ccc(F)cc2)cc1 (configuration not stated) | inactive
COc1ccc(OP(C)(=O)Nc2ccc(SC(F)(F)F)cc2)cc1 (configuration not stated) | inactive
O=C(NC1CCS(=O)(=O)C1)NP(=S)(Oc1ccccc1)Oc1ccccc1 (configuration not stated) | inactive
CCNC(=S)/N=C(\N)N[N+](=O)[O-] | inactive
Cc1ccc(NP(=O)(Oc2cccc(C)c2)Oc2cccc(C)c2)nc1 | inactive
CCOC(=O)NC(Sc1ccccc1)C(Cl)(Cl)Cl (configuration not stated) | inactive
c1ccc(-c2nn[nH]n2)c(-c2nn[nH]n2)c1 | inactive
CP(=O)(Nc1ccccc1)Oc1ccc(F)cc1 (configuration not stated) | inactive
CCCCCOc1ccc(NP(C)(=O)Oc2ccc(Cl)cc2Cl)cc1 (configuration not stated) | inactive
O=[N+]([O-])c1cc([N+](=O)[O-])c(OC2CCCCC2O)c([N+](=O)[O-])c1 (configuration not stated) | inactive
CN(C)C(=O)Oc1noc2ccccc12 | inactive
Cc1ccccc1OP(=O)(Nc1ccccn1)Oc1ccccc1C | inactive
CC(=O)NC(SC(=S)N(CC(C)C)CC(C)C)C(Cl)(Cl)Cl (configuration not stated) | inactive

Compound | outcome
Cc1ccc(OP(=O)(Nc2ccccn2)Oc2ccc(C)cc2)cc1 | inactive
COC(=O)c1cc2c(s1)N=C(c1ccccc1)N(C)P2(=O)N1CCOCC1 (configuration not stated) | inactive
CCC(=O)N1C2C3N(C(=O)CC)C1C1N(C(=O)CC)C(C(N1C(=O)CC)N3C(=O)CC)N2C(=O)CC | inactive
CCN(CC)CCCOC(=O)C(O)(c1ccccc1)C1CCCCC1 (configuration not stated) | inactive
O=C(OC1CN2CCC1CC2)c1ccccc1 (configuration not stated) | inactive
CP(=O)(Nc1ccccc1F)Oc1ccccc1 (configuration not stated) | inactive
CC(C)c1ccc(OP(C)(=O)Nc2ccc(SC(F)(F)F)cc2)cc1 (configuration not stated) | inactive
CC(C)(C)C(=O)NC(Sc1ccccc1)C(Cl)(Cl)Cl (configuration not stated) | inactive
CCOc1ccc(C2=NCC(CBr)S2)cc1 (configuration not stated) | inactive
O=P1(Nc2nc3ccc(Cl)cc3s2)COc2ccccc2O1 (configuration not stated) | inactive
CC(=O)Nc1ccc(Oc2c([N+](=O)[O-])cc([N+](=O)[O-])cc2[N+](=O)[O-])cc1 | inactive
CC(=O)Nc1ccc([As](=O)(O)O)c(O)c1 | inactive
COc1ccc2c(c1O)-c1c(O)c(OC)cc3c1[C@H](C2)[N+](C)(C)CC3.O=[N+]([O-])c1cc([N+](=O)[O-])c([O-])c([N+](=O)[O-])c1[O-] | inactive
O=C(OC1CN2CCC1CC2)c1ccc([N+](=O)[O-])cc1 (configuration not stated) | inactive
CC(=O)c1ccc(N2CC2c2ccncc2)cc1 (configuration not stated) | inactive
C[C@H]1OP(=O)(Oc2ccccc2)C[C@@H]2O[C@@H]21 (some centres not stated) | inactive
C[C@@H]1C=CCP(=O)(Oc2ccccc2)O1 (some centres not stated) | inactive
O=C(OCCN1CCN(CCOCc2ccccc2)CC1)C(O)(c1ccccc1)c1ccccc1 | inactive
CCOP(C)(=S)SCC(=O)NC(C)(CC)C(=O)O (configuration not stated) | inactive
c1nnnn1CCn1cnnn1 | inactive
CP(=O)(Nc1ccc(SC(F)(F)F)cc1)Oc1ccc(F)cc1 (configuration not stated) | inactive
O=P(Nc1nccs1)(c1ccccc1)c1ccccc1 | inactive
CC(C)C(=O)NC(Sc1ccccc1)C(Cl)(Cl)Cl (configuration not stated) | inactive

Compound | outcome
Cc1ccccc1NP(C)(=O)Nc1ccccc1C | inactive
CP(=O)(Nc1ccc2c(c1)OCCO2)Oc1ccccc1 (configuration not stated) | inactive
C[C@H]1OP(=O)(Oc2ccccc2)[C@H](O)[C@H](O)[C@H]1N=[N+]=[N-] (some centres not stated) | inactive
O=P(Nc1nc2ccccc2s1)(c1ccccc1)c1ccccc1 | inactive
CN(C)CCOC(=O)C(O)(c1ccccc1)C1CCCCC1 (configuration not stated) | inactive
COc1ccc(NP(C)(=O)Oc2ccccc2OC)cc1 (configuration not stated) | inactive
COc1ccc(OP(C)(=O)Nc2cccc(Br)c2)cc1 (configuration not stated) | inactive
CN(C)C1(CNC(=O)c2ccc(Cl)c(S(N)(=O)=O)c2)CCCCC1 | inactive
O=P(Nc1ccccn1)(c1ccc(Br)cc1)c1ccc(Br)cc1 | inactive
C(Cc1nn[nH]n1)Cc1nn[nH]n1 | inactive
Nc1ccc([As](=O)(O)c2ccc([N+](=O)[O-])cc2)cc1 | inactive
O=C(OC1CN2CCC1CC2)c1cccc(Cl)c1 (configuration not stated) | inactive
CC(=O)NC(SC(=S)N(C)C)C(Cl)(Cl)Cl (configuration not stated) | inactive
O=[N+]([O-])c1ccc(OP2(=O)COCCO2)cc1 (configuration not stated) | inactive
O=[N+]([O-])c1ncn(CCn2cnc([N+](=O)[O-])n2)n1 | inactive
O=[N+]([O-])c1ccc(O)c(/C=N/Nc2ccc([N+](=O)[O-])cc2[N+](=O)[O-])c1 | inactive
Cc1cc(-c2cccc3ccccc23)c(C)cn1.O=[N+]([O-])c1cc([N+](=O)[O-])c(O)c([N+](=O)[O-])c1 | inactive
O=[N+]([O-])c1cc([N+](=O)[O-])c(NCC2CCS(=O)(=O)C2)c([N+](=O)[O-])c1 (configuration not stated) | inactive
O=[As](O)(c1ccccc1)c1ccc(O)cc1 | inactive
O=C(Nc1cc([As](=O)(O)O)ccc1O)c1ccccc1 | inactive
CCOC(=O)c1ccc(NP(C)(=O)Oc2ccc(Cl)cc2)cc1 (configuration not stated) | inactive
CP(=O)(OC12CC3CC(CC(C3)C1)C2)OC12CC3CC(CC(C3)C1)C2 | inactive
Nc1ccc2c(ccc3cccnc32)n1.O=[N+]([O-])c1cc([N+](=O)[O-])c(O)c([N+](=O)[O-])c1 | inactive

Compound | outcome
O=[N+]([O-])c1cccc(NC2=NCC(CBr)S2)c1 (configuration not stated) | inactive
O=C(O)CNc1ccc([As](=O)(O)O)cc1 | inactive
CC(C)(C)C(=O)NC(Sc1ccncn1)C(Cl)(Cl)Cl (configuration not stated) | inactive
O=[N+]([O-])c1ncn(CCn2ncnc2[N+](=O)[O-])n1 | inactive
O=C(OCCCN1CCCC1)C(O)(c1ccccc1)C1CCCCC1 (configuration not stated) | inactive
CC(=O)N1C2C3N(C(C)=O)C1C1N(C(C)=O)C(C(N1C(C)=O)N3C(C)=O)N2C(C)=O | inactive
O=[N+]([O-])c1cccc2n[nH]nc12 | inactive
COc1ccccc1OP(C)(=O)Nc1c(C)n(C)n(-c2ccccc2)c1=O (configuration not stated) | inactive
CCc1ccc(OP(C)(=O)Nc2cccnc2)cc1 (configuration not stated) | inactive
O=[N+]([O-])c1cc([N+](=O)[O-])c(CCNc2ccccc2)c([N+](=O)[O-])c1 | inactive
CCc1nc2c(n1)c1c(non1O)c1c2no[n+]1[O-] | inactive
CP(=O)(Oc1ccccc1)N1CCOC1=O (configuration not stated) | inactive
Cc1ccc(NP(=O)(Oc2ccccc2)Oc2ccccc2)nc1 | inactive
COc1ccc(OP(C)(=O)Nc2ccc(Br)cc2)cc1 (configuration not stated) | inactive
COc1ccc(C2=NCC(CBr)S2)cc1 (configuration not stated) | inactive
CCN(CC)CC(O)COC(=O)C(O)(c1ccccc1)C1CCCCC1 (configuration not stated) | inactive
CN(C)C(=O)OCCc1n(C)cc[n+]1C | inactive
CC(C)=N/N=C(\N)N[N+](=O)[O-] | inactive
CN(C)C(=O)c1c([N+](=O)[O-])cc([N+](=O)[O-])cc1[N+](=O)[O-] | inactive
CC1CCN(C(=O)Oc2c(Cl)cc(Cl)c3cccnc23)CC1 | inactive
